Laboratory results from ChEMBL document CHEMBL3045240, “Structural aspects of ryanodine action and selectivity” (J Med Chem, 1987).

Sequences of proteins named here, by UniProt entry; tags and fusion partners are left off. A change or cut given only in a name is not applied to a line headed by its entry.
UniProt P11716: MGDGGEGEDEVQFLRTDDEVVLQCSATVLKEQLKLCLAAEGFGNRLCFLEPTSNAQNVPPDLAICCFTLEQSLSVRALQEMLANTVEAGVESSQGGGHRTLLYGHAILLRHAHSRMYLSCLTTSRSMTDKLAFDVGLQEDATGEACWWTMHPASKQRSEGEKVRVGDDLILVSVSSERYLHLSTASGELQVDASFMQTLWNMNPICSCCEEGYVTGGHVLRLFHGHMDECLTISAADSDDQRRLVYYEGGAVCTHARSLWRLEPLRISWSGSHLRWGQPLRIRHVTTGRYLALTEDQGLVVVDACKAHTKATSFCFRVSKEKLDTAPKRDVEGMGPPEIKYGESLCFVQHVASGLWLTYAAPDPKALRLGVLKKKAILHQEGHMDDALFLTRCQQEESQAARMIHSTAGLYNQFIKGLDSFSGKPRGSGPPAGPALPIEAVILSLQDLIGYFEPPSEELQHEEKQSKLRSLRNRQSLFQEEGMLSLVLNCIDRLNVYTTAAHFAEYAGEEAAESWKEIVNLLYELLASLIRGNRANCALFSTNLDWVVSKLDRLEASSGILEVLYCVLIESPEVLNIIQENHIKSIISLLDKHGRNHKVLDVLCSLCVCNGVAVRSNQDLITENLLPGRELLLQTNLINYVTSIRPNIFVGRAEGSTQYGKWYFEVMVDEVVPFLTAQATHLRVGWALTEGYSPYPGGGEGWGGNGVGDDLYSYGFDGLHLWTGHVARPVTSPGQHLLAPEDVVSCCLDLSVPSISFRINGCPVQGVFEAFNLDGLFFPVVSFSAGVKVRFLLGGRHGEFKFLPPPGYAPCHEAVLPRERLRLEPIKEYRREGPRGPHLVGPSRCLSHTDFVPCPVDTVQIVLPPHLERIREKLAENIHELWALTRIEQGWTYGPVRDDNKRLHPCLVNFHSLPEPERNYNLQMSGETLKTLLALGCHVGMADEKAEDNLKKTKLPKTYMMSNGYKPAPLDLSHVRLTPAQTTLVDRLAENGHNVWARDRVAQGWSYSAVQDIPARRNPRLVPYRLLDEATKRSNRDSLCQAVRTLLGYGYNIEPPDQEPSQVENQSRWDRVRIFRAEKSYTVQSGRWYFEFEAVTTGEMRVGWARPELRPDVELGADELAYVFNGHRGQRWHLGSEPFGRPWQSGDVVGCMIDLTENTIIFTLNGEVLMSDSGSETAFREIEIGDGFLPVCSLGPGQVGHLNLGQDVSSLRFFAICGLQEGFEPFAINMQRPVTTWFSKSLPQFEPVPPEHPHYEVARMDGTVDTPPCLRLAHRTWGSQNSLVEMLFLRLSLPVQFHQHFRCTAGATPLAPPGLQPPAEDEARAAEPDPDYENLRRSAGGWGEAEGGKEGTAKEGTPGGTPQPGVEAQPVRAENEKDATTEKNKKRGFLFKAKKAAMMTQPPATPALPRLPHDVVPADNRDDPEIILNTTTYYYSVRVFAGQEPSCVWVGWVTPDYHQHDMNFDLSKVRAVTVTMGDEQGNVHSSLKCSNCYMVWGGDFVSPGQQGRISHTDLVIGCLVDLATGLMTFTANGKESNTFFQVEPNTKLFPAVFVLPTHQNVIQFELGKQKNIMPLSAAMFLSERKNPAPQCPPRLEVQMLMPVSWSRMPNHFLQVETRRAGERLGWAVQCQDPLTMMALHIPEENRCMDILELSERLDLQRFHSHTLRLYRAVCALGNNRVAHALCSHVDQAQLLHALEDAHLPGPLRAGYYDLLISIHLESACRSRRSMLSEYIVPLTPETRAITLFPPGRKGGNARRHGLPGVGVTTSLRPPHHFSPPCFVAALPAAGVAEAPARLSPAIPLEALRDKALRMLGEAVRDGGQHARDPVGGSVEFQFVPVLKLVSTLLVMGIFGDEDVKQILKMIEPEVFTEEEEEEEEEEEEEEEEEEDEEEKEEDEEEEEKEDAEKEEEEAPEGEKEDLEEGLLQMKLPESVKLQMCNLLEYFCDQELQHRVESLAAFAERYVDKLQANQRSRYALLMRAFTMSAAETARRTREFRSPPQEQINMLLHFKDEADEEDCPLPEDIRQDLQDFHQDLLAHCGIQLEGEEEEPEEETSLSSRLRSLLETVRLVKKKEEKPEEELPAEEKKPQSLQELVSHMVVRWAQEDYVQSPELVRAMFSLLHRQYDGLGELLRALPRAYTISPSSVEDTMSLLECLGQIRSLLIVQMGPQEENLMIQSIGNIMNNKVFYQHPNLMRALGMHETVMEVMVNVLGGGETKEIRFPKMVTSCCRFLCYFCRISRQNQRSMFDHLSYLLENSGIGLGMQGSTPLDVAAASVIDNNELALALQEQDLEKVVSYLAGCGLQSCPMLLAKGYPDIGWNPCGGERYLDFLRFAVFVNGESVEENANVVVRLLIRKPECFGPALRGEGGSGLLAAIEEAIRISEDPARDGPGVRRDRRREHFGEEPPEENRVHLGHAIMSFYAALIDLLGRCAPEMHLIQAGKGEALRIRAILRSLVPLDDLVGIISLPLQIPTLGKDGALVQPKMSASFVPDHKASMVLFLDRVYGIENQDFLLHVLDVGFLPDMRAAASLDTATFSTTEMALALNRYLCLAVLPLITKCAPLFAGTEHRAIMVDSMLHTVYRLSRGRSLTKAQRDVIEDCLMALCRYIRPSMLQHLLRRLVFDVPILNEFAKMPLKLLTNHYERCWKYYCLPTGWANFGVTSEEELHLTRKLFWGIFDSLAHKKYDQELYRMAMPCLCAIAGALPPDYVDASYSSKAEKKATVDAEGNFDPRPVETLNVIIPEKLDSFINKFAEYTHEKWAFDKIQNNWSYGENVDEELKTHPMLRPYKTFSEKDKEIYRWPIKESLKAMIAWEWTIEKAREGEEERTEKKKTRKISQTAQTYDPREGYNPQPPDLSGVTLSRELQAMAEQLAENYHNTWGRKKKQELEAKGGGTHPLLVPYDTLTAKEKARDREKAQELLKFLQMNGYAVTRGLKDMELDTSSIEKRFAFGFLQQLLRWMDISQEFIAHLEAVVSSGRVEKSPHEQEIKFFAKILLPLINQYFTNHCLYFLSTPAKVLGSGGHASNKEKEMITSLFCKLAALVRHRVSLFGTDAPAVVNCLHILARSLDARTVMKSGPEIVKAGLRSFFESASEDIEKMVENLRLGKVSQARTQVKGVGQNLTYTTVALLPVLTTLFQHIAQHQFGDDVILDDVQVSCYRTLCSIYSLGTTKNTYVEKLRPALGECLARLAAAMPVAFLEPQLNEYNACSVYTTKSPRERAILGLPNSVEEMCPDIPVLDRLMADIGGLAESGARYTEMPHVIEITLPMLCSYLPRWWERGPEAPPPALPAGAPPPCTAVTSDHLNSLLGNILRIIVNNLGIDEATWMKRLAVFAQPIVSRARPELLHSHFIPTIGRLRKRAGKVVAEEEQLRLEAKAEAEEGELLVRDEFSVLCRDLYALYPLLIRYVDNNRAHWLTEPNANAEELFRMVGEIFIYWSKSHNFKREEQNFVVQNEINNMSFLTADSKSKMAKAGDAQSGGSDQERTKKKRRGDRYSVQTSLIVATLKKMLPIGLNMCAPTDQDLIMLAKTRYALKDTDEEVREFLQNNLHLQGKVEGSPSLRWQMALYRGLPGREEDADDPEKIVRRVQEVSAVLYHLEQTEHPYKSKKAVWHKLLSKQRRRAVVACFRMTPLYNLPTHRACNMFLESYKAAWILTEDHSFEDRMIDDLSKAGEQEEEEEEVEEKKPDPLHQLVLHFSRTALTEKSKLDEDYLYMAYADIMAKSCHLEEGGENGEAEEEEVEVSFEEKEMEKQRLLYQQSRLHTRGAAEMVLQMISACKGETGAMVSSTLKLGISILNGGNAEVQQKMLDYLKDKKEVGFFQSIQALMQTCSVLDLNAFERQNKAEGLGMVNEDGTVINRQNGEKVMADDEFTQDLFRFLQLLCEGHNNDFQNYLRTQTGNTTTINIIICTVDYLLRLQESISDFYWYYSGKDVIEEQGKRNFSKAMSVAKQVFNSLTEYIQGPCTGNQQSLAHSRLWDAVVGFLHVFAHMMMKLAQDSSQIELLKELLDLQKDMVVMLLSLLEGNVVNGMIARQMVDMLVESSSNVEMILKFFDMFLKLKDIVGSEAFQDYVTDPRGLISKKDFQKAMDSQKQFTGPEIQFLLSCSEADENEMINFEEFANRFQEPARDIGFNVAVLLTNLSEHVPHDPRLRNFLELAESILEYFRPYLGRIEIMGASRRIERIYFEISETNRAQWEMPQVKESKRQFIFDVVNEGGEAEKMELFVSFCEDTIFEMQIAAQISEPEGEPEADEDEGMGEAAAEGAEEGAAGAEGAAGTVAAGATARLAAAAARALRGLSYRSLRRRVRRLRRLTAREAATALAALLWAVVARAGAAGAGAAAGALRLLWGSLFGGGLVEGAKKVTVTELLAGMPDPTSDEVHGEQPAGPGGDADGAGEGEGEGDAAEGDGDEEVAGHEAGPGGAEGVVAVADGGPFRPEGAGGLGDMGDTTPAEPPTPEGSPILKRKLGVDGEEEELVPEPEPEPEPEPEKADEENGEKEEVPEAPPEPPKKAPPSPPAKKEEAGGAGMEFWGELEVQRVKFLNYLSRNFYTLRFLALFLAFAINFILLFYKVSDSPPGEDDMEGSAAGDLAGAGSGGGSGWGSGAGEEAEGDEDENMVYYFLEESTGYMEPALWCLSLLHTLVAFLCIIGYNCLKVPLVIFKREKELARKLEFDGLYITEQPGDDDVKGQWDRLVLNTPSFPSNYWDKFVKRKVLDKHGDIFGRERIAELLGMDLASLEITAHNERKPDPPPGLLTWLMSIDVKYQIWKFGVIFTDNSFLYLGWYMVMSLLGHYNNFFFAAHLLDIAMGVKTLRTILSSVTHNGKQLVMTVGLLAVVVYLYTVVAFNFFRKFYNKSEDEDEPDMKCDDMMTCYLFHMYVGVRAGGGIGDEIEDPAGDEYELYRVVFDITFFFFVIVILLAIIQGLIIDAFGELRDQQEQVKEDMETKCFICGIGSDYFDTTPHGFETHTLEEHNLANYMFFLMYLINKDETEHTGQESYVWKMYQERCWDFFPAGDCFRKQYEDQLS

Target: Ryanodine receptor 1 (Oryctolagus cuniculus, UniProt P11716)

Q: With `CC(C)[C@@]1(O)[C@@H](OC(=O)c2ccc[nH]2)[C@@]2(O)[C@@]3(C)C[C@]4(O)O[C@@]5([C@H](O)[C@H](C)CC[C@]35O)[C@@]2(O)[C@]14C` [EPIRYANODINE] as the compound, how does the IC50 read?
A: 41 nM
